# Measurements: patent US20210047398A1, “ASPROSIN, A FAST-INDUCED GLUCOGENIC PROTEIN HORMONE” (Baylor College of Medicine, priority 2016, published 2021)
# Experiments:
# [1] = test system: mouse primary hepatocytes; assay: In vitro glucose production assay (media glucose accumulation); settings: 50 nM recombinant asprosin, 2 hours; suramin 5 μM, cAMPS-Rp 200 μM, insulin 10 mg/L, antibody 50 ug pretreatment
# Method: (§1) Cell Culture. Primary mouse hepatocytes were isolated from 8- to 12-week-old WT mice using standard methodology. […] The cells were treated with 50 nM recombinant asprosin or GFP for 10 minutes for cAMP and PKA assays and for 2 hours for the in vitro glucose production assay. Cells were pretreated with various inhibitors for 1 hour prior to treatment with asprosin, GFP, Glucagon or Epinephrine. cAMP was measured from cell lysates using the cAMP direct immunoassay kit from Cell Biolabs. PKA activity was measured from cell lysates using the PKA kinase activity kit from Enzo Lifesciences, Inc. Media glucose content was measured using the Glucose Colorimetric Assay Kit from Biovision. Results were normalized to protein content.
# [2] = test system: mouse primary hepatocytes; assay: Hepatocyte cAMP level and PKA activity; settings: 50 nM recombinant asprosin, 2 hours; suramin 5 μM, insulin 10 mg/L
# Method: as §1
substance,measurement,setting,value
insulin [reference compound],effect on asprosin mediated hepatocyte glucose release,[1],suppressed
same,effect on asprosin-mediated hepatocyte PKA activation,[2],suppressed
